Experimental data: patent US20230295106A1 (priority 2019, published 2023)

The chains behind the UniProt entries cited, without tags or fusion partners. Residues count along the entry.
UniProt P28335, whole entry I156V/N158S/I160V: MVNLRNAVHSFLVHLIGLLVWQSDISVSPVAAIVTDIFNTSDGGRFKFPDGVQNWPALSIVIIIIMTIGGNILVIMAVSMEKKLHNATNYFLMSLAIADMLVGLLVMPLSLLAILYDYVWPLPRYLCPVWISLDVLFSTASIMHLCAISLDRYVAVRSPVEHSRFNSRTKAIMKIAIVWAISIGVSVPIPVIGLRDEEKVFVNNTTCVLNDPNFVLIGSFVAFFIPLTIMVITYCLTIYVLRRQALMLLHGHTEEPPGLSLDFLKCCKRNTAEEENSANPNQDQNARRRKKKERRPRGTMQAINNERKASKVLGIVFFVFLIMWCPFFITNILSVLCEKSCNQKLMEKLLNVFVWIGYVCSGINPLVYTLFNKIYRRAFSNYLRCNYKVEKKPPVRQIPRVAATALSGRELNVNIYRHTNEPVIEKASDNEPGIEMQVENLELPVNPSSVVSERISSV
UniProt P28335, 33-458 I156V/N158S/I160V limits assumed: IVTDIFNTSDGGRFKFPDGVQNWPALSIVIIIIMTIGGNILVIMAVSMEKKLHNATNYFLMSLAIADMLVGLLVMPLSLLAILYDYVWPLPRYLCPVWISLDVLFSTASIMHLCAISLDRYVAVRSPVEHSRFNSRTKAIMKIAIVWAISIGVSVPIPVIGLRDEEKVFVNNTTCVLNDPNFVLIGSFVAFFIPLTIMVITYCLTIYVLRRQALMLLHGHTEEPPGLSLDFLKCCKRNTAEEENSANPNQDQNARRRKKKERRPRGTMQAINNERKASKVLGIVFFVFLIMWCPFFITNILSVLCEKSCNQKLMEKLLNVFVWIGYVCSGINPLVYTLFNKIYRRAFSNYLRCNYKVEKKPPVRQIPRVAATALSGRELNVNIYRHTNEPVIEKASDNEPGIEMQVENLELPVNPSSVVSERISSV

Experiments:
[1] = molecular target: 5-HT2C edited (accession number AAF35842.1) (Homo sapiens, UniProt P28335, I156V/I160V/N158S); experiment: Serotonin 5-HT2C in vitro radioligand binding competition assay ([3H]-DOI); conditions: read-out: 5-HT2C Radioligand Binding Activity; competition with [3H]-DOI, membrane extracts
[2] = molecular target: human recombinant 5-HT2C edited receptor (accession number AAF35842.1) (Homo sapiens, UniProt P28335, I156V/N158S/I160V); experiment: Serotonin 5-HT2C in vitro cellular IPOne agonism assay (HTRF); conditions: read-out: 5-HT2C IPOne Agonism Activity; CHO-K1 cells, 60 min at 37° C.

`CCN(CC)C(=O)C1C=C(c2c(OC)cccc2OC)CN(C)C1` (single isomer, unassigned) [Compound 3] showed an IC50 [1] of over 10 µM and an EC50 [2] of over 10 µM.

`CCN(CC)C(=O)C1C=C(c2c(OC)cccc2OC)CN(C)C1` (single isomer, unassigned) [Compound 4] was tested, and the IC50 [1] was over 10 µM and the EC50 [2] was 1 to 10 µM.
